Laboratory results taken from article PMC8865417, “Receptor Interaction Profiles of 4-Alkoxy-3,5-Dimethoxy-Phenethylamines (Mescaline Derivatives) and Related Amphetamines” (Frontiers in Pharmacology, 2022).

By UniProt entry, the sequences of proteins in these tests, tags left out.
UniProt P28223, whole entry: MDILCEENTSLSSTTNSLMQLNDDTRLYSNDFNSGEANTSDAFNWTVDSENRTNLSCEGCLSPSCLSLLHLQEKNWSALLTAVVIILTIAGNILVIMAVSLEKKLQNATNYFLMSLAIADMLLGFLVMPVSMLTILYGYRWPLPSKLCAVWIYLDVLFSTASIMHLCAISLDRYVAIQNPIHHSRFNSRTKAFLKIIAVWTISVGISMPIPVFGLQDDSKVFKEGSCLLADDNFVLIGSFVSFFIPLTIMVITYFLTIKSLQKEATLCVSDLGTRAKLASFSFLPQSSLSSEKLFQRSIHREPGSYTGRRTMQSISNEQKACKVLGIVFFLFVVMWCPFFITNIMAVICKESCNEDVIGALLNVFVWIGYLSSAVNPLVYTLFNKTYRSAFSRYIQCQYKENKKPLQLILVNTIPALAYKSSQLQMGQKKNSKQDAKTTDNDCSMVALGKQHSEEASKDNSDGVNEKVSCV

Molecular target: T1, h5-HT2A receptor (Homo sapiens, UniProt P28223)
T1 construct: expressed in transfected cells; host or cells: HEK 293 cells (membrane preparations)
Assay: Radioligand binding at h5-HT2A receptor ([3H]ketanserin)
Settings: binding ratio

COc1cc(CCN)cc(OC)c1OC [compound 5, 3,4,5-trimethoxyphenethylamine]
Selectivity 5-HT2A vs. 5-HT1A: 0.7
Selectivity 5-HT2A vs. 5-HT2C: 1.1
